# What was measured:
# Experiment in all cases: Six-well plate screening test
# Assay type in all cases: cell-based
# Aspergillus niger = system: Aspergillus niger
# Aureobasidium pullulans = system: Aureobasidium pullulans
# [1] = system: Cladosporium cladosporioides
# Penicillium funiculosum = system: Penicillium funiculosum
# Trichoderma virens = system: Trichoderma virens
# Stachybotrus charatrum = system: Stachybotrus charatrum
substance,measurement,setting,value
iron(III) dimethyldithiocarbamate [Ferbam],Minimum Inhibitory Concentrations (MIC),Aspergillus niger,100 mg/kg
same,Minimum Inhibitory Concentrations (MIC),Aureobasidium pullulans,100 mg/kg
same,Minimum Inhibitory Concentrations (MIC),[1],100 mg/kg
same,Minimum Inhibitory Concentrations (MIC),Penicillium funiculosum,>100 mg/kg
same,Minimum Inhibitory Concentrations (MIC),Trichoderma virens,>100 mg/kg
same,Minimum Inhibitory Concentrations (MIC),Stachybotrus charatrum,50 mg/kg

# From US20050227956A1, “Control of mold growth on wood” (priority 2004, published 2005)
